Measured values taken from patent publication US5298622A, “Spiroindane opiate analogs” (priority 1993, dated 1994).

Chains of the proteins cited; added tags and fusions are not shown. Lines headed by an entry give the natural chain unless they say otherwise; changes in a name come on top. Residues count along the entry.
UniProt A0ACM8Q262, 1-400: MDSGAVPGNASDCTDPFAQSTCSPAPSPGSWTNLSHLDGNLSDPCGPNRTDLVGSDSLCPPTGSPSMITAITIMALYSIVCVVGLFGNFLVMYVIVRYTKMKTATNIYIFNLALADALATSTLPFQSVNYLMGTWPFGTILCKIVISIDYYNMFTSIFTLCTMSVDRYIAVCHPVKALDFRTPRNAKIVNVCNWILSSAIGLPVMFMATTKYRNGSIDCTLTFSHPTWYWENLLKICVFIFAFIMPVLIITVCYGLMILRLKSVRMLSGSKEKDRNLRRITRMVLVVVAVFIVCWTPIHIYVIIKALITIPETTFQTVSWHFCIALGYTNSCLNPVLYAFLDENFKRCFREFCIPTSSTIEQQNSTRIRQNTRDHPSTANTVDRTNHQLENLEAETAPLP
UniProt P41144: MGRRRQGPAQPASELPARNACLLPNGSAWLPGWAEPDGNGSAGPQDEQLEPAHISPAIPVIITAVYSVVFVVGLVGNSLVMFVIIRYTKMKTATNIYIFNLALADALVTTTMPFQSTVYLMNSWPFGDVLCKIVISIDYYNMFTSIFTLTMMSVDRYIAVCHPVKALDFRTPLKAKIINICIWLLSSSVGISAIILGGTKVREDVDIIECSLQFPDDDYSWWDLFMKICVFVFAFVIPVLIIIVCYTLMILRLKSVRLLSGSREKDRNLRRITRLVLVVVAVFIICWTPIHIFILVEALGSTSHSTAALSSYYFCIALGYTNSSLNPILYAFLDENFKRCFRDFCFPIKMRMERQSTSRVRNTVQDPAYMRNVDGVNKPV
UniProt P32300, whole entry: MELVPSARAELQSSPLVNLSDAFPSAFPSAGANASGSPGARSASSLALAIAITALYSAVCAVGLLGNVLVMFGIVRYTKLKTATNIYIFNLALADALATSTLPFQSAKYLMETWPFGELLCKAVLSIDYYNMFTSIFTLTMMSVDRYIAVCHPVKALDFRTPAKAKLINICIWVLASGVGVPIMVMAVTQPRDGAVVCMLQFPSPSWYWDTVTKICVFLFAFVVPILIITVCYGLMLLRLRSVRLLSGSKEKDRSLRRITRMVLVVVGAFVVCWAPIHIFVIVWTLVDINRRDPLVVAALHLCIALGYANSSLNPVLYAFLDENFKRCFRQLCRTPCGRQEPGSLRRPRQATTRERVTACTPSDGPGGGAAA

What was measured:
mu opioid receptor = biological target: T1, mu opioid receptor (Cavia porcellus, UniProt A0ACM8Q262); assay: GPI assay, antagonism of morphine (mu); assay type: cell-based, guinea pig; conditions: antagonist 100 nM, 15 min; agonist morphine (mu)
T1 construct: antagonism of morphine
Experimental: (§1) 1. Guinea Pig Ileal Longitudinal Muscle (GPI). Ilea from guinea pigs were taken approximately 10 cm from the ileocecal junction, and a strip of longitudinal muscle with the myenteric plexus attached was prepared by the method of H. B. Rang et al., Brit. J. Pharmacol., 22, 356 (1964). A 1 cm portion of this strip was then mounted between two platinum electrodes placed in a 10 ml organ bath and connected to an isometric transducer; contractions were recorded on a polygraph. Contractions of the ileal strip were initiated by supramaximal rectangular pulses in all preparations (80 V of 0.5 ms duration at a frequency of 0.1 Hz). Krebs bicarbonate solution containing 1.25 μM chlorpheniramine maleate was the bathing solution and was continuously bubbled with 95% O2 and 5% CO2. The organ bath was maintained at 36°-37° C. The longitudinal muscle strip was allowed to equilibrate with continuous stimulation for a minimum of 90 min. Cumulative concentration-response curves were determined after drugs were added to the bath in 10- to 50-μl amounts and washed out with two 10 ml portions of buffer after noting their maximum effects.
(§2) Concentration-response curves were obtained in the absence (control) and the presence of the antagonist are expressed as IC50 values. The IC50 ratio represents the IC50 in the presence of the antagonist divided by the control IC50 value in the same tissue. Therefore, a high IC50 ratio represents a correspondingly high degree of antagonism at a particular receptor. This IC50 ratio was employed to calculate the Ke value using the equation Ke=[antagonist]/(IC50 ratio-1). Therefore, a low Ke represents a correspondingly high degree of binding at a particular receptor.

kappa opioid receptor = biological target: T2, kappa opioid receptor (Cavia porcellus, UniProt P41144); assay: GPI assay, antagonism of ethylketazocine (EK, kappa); assay type: cell-based, guinea pig; conditions: antagonist 100 nM, 15 min; agonist ethylketazocine (kappa)
T2 construct: a strip of longitudinal muscle with the myenteric plexus attached was prepared; from tissue; host or cells: guinea pig ileum, longitudinal muscle strip with myenteric plexus
Experimental: as §1, §2

delta opioid receptor = biological target: T3, delta opioid receptor (Mus musculus, UniProt P32300); assay: MVD assay, antagonism of DADLE (delta); assay type: cell-based; conditions: for MVD Antagonism IC50 Ratio (DADLE) / Kb: antagonist 100 nM, 15 min; for MVD Antagonism IC50 Ratio (DADLE): agonist DADLE (delta); for Kb: Ke=[antagonist]/(IC50 ratio-1)
T3 construct: Both vasa deferentia were dissected out of mice; from tissue; host or cells: mouse vas deferens
Experimental: 2. Mouse Vas (MVD). This assay was performed according to the description by G. Henderson et al., Brit. J. Pharmacol., 46, 764 (1972). Both vasa deferentia were dissected out of mice and mounted singly through two platinum ring electrodes in a 10 ml organ bath. The bath contained Krebs bicarbonate solution that was continuously bubbled with 95% O2 and 5% CO2. The organ bath was maintained at 37° C. The tissue was attached to an isometric transducer and stimulated transmurally with rectangular pulses ([…], 1 ms duration, supramaximal voltage). Drugs were added cumulatively to the bath in 10- to 50-μl amounts and washed out after noting their maximum effect.
as §2

Substance	GPI Antagonism IC50 Ratio (Morphine) (mu opioid receptor)	GPI Antagonism IC50 Ratio (EK) (kappa opioid receptor)	MVD Antagonism IC50 Ratio (DADLE) (delta opioid receptor)	Kb (delta opioid receptor)	δ-antagonist activity (in words) (delta opioid receptor; δ-selective agonist)
7-(4',5'-Benz-2'-spiroindano)naltrexone and 7-(6',7'-Benz-2'-spiroindano)naltrexone [Compound 3e]	0.53	2.01	25	4.17 nM	
7-(4,-Methoxy-2,-spiroindano)naltrexone and 7-(7' -Methoxy-2'-spiroindano)-naltrexone [Compound 3b]	8.47	2.63	60	1.71 nM	moderate δ-antagonist activity
7-(5'-Methoxy-2'-spiroindano)naltrexone and 7-(6'-Methoxy-2'-spiroindano)naltrexone [Compound 3c]	0.92	2.41	14	7.81 nM	
